For one compound, Ki results are on record in patent US7678809B2 (priority 1999, dated 2010).

One experiment deals with delta opioid receptor (Homo sapiens, UniProt P41143). Description: Affinity at the δ receptor ([35S]GTPγS binding assay, opioid receptor membranes). The conditions noted are these: read-out: calc Ki (nM) δ2. It counts as biochemical.
The target of another experiment is kappa opioid receptor (Homo sapiens, UniProt P41145). Description: Affinity at the k receptor ([35S]GTPγS binding assay, opioid receptor membranes). It counts as biochemical. The conditions noted are these: read-out: calc Ki (nM) k.
Experiment [1] deals with human opioid receptor-like receptor (ORL-1) (Homo sapiens, UniProt P41146). The conditions noted are these: read-out: Nociceptin Affinity calc Ki; ORL-1 membranes from recombinant HEK-293 cells.
The next experiment concerns the target Mu opioid receptor (Homo sapiens, UniProt P35372). Description: Affinity at the μ receptor ([35S]GTPγS binding assay, opioid receptor membranes). The conditions noted are these: read-out: calc Ki (nM) μ. It counts as biochemical.

`O=c1[nH]c2ccccc2n1C1CCN(Cc2ccc(-c3ccccc3)cc2)CC1`: the Ki (in general, a measure of affinity in units of concentration, obtained from inhibition or displacement) was 3290 nM on delta opioid receptor, 1300 nM on kappa opioid receptor, 1250 nM in experiment [1] and 105 nM on Mu opioid receptor.
